Assay results reported in patent US10138236B2, “Factor xia-inhibiting pyridobenzazepine and pyridobenzazocine derivatives” (BAYER PHARMA AKTIENGESELLSCHAFT, priority 2014, dated 2018).

Chains of the proteins cited; added tags and fusions are not shown. Residues count along the entry.
UniProt P03951, 19-387 partner: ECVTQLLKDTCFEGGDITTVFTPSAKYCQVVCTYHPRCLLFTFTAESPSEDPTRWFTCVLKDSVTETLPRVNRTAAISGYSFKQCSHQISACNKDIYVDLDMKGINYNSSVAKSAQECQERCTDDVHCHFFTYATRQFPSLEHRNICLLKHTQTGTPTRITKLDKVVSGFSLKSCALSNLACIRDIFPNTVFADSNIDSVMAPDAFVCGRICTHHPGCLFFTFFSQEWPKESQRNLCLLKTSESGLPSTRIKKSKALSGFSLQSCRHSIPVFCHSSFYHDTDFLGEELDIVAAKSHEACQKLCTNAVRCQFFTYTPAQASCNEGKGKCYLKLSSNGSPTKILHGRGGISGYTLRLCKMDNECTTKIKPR
UniProt P03951, 388-625: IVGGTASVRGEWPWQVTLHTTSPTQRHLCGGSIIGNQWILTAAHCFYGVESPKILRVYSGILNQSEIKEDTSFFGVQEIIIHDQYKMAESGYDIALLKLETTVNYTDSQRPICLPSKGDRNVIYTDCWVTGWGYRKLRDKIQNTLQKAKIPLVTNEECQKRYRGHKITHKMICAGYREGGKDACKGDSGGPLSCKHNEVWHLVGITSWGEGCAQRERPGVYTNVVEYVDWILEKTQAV

Target: human factor XIa (Homo sapiens (Human), UniProt P03951)
Assay: Measurement of FXIa inhibition
Format: biochemical
Experimental: a.1) Measurement of FXIa Inhibition
The factor XIa inhibition of the substances according to the invention is determined using a biochemical test system which utilizes the reaction of a peptidic factor XIa substrate to determine the enzymatic activity of human factor XIa. Here, factor XIa cleaves from the peptic factor XIa substrate the C-terminal aminomethylcoumarin (AMC), the fluorescence of which is measured. The determinations are carried out in microtitre plates.
1 μl of the diluted substance solutions is placed into each of the wells of white microtitre plates from Greiner (384 wells). […] After 15 min of incubation, the enzyme reaction is started by addition of 20 μl of the factor XIa substrate Boc-Glu(OBzl)-Ala-Arg-AMC dissolved in assay buffer (10 μM in assay buffer) from Bachem, the mixture is incubated at room temperature (22° C.) for 30 min and fluorescence is then measured (excitation: 360 nm, emission: 460 nm). The measured emissions of the test batches with test substance are compared to those of control batches without test substance (only dimethyl sulphoxide instead of test substance in dimethyl sulphoxide), and IC50 values are calculated from the concentration/activity relationships.

In the case of `COCCC(C(=O)Nc1ccc(C(N)=O)c(F)c1)n1cc2c(cc1=O)-c1cc(Cl)ccc1CC(CF)NC2=O` (stereo not shown) [Example 32, 4-({2-[11-Chloro-7-(fluoromethyl)-2,5-dioxo-5,6,7,8-tetrahydropyrido[3,4-e][3]benzazocin-3(2H)-yl]-4-methoxybutanoyl}amino)-2-fluorobenzamide], the IC50 is reported as 5.3 nM.
